Experimental findings from patent publication US11814447B2, “Peptide ligands for binding to EphA2” (BICYCLERD LIMITED, priority 2018, dated 2023) are described below.

Chains of the proteins cited; added tags and fusions are not shown. Residues count along the entry.
UniProt P29317, 24-537: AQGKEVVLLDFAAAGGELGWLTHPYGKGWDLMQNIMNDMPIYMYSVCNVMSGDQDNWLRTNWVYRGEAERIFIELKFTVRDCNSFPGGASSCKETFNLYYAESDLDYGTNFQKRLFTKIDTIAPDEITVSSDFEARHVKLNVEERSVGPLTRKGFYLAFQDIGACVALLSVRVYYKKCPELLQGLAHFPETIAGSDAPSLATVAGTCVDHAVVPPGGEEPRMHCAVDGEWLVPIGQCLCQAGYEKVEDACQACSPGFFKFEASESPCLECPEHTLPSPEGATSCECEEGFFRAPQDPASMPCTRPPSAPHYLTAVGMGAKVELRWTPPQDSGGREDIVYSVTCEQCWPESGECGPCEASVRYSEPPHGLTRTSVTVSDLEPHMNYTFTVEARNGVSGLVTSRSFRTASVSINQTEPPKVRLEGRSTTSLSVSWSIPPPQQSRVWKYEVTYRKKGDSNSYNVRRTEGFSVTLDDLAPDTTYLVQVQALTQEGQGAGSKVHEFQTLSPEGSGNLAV

The target of the first assay is T1, Human EphA2 (Ecto), C-terminal polyHis (Human, UniProt P29317 24-537).
T1 construct: extracellular domain; also called EPH receptor A2; ephrin type-A receptor 2
Briefly: fluorescence polarisation competition; competitor fluorescent Compound 12.
Take ACPWGPAWCPVNRPGCA (3 Cys thioether-linked to TBMB scaffold, also called Compound 44) [Bicycle Compound Number 44 (TBMB scaffold)]: the Ki was determined as 128 nM.

For a further assay, the target named is T1, Human EphA2 (Ecto), C-terminal polyHis. Briefly: fluorescence polarisation competition; competitor fluorescent Compound 18.
In turn, ARDDPCPWGPFWCPVNRPGCA (3 Cys thioether-linked to TBMB scaffold, also called Compound 62) [Bicycle Compound Number 62 (TBMB scaffold)] yielded a Ki of 16.1 nM.
The molecule ADVRTCPWGPFWCPVNRPGCA (3 Cys thioether-linked to TBMB scaffold, also called Compound 60) [Bicycle Compound Number 60 (TBMB scaffold)] gave an inhibition constant Ki of 12.6 nM.
Still for that read-out and setting: in the case of ADHACPWGPFWCPVNRPGCA (3 Cys thioether-linked to TBMB scaffold, also called Compound 56) [Bicycle Compound Number 56 (TBMB scaffold)] it was 14.4 nM.

A further assay addresses T2, Human EphA2 (Ecto) (Human, UniProt P29317 24-537).
T2 construct: extracellular domain
Nature of the assay: FP competition, tracer Compound 66.
CANDWLCSLGWTC (Ac-CANDWLCSLGWTC; 3 Cys on TBMB) [Bicycle Compound 25]: the Ki is 328 nM.
The same measure, in the same setting: as for CMNDWLCSAGWTC (Ac-CMNDWLCSAGWTC; 3 Cys on TBMB) [Bicycle Compound 27], the figure is 356 nM; as for CMNDWLCALGWTC (Ac-CMNDWLCALGWTC; 3 Cys on TBMB) [Bicycle Compound 26], 71.6 nM.

In the next assay the target is T1, Human EphA2 (Ecto), C-terminal polyHis. Nature of the assay: fluorescence polarisation competition; competitor fluorescent Compound 66.
In turn, CMNDWLCALGWTC (N-terminal Ac; 3 Cys thioether-linked to TBMB scaffold, also called Compound 26) [Bicycle Compound Number 26 (TBMB scaffold)] showed an inhibition constant Ki of 71.6 nM.
Molecule CMNDWLCSAGWTC (N-terminal Ac; 3 Cys thioether-linked to TBMB scaffold, also called Compound 27) [Bicycle Compound Number 27 (TBMB scaffold)] gave an inhibitory constant (Ki) of 356 nM. This Ki is about 5-fold higher than that of the molecule before.
In turn, ADVRTCPWGPFWCPVNRPGCA (3 Cys thioether-linked to TBMB scaffold, also called Compound 60) [Bicycle Compound Number 60 (TBMB scaffold)] yielded a Ki of 2.5 nM. Compared with the last molecule, the Ki is about 140-fold lower.
On the same count and under the same terms, as for ACVPQGIWCALRYEPCA (3 Cys thioether-linked to TBMB scaffold, also called Compound 65) [Bicycle Compound Number 65 (TBMB scaffold)], the figure is 293 nM; as for CANDWLCSLGWTC (N-terminal Ac; 3 Cys thioether-linked to TBMB scaffold, also called Compound 25) [Bicycle Compound Number 25 (TBMB scaffold)], 328 nM.
On the same count and under the same terms, in the case of ACPWGPAWCPVNRNGCA (3 Cys thioether-linked to TBMB scaffold, also called Compound 52) [Bicycle Compound Number 52 (TBMB scaffold)] it was 168 nM.

For another assay, the target named is T3, Human EphA2 (Ecto) (Human, UniProt P29317 24-537).
T3 construct: extracellular domain; in-house)
Briefly: FP competition; tracer Reference Compound C.
For ACPMVNPLCLHPGWKCA (3 Cys thioether-linked to TATA scaffold) [Bicycle Compound Number 95 (TATA scaffold), ACPMVNPLCLHPGWKCA], the affinity corresponds to a Ki of 11.9 nM.
Consider ACPMVNPLCLTPGWICA (3 Cys thioether-linked to TATA scaffold) [Bicycle Compound Number 96 (TATA scaffold), ACPMVNPLCLTPGWICA], for which the Ki turned out to be 16.1 nM.
Molecule ACQPSNHCAFMNYCA (3 Cys thioether-linked to TATA scaffold) [Bicycle Compound Number 30 (TATA scaffold), ACQPSNHCAFMNYCA] returned an inhibition constant Ki of 293 nM. Compared with the last molecule, the Ki is about 18-fold higher.
Same read-out and setting: in the case of KHSCPLVNPLCLHPGWTCA (3 Cys thioether-linked to TATA scaffold) [Bicycle Compound Number 72 (TATA scaffold), KHSCPLVNPLCLHPGWTCA] it was 11.9 nM.
The same measure, in the same setting: as for ACPLVNPLCLHPGWTCLHG (3 Cys thioether-linked to TATA scaffold) [Bicycle Compound Number 73 (TATA scaffold), ACPLVNPLCLHPGWTCLHG], the figure is 1.98 nM.
For ACGFMGLEPCELYCA (3 Cys thioether-linked to TATA scaffold) [Bicycle Compound Number 48 (TATA scaffold), ACGFMGLEPCELYCA], the Ki came to 128 nM. Compared with the last molecule, the Ki is about 65-fold higher.
Same read-out and setting: in the case of GQVCIVDARCAYMNVCA (3 Cys thioether-linked to TATA scaffold) [Bicycle Compound Number 24 (TATA scaffold), GQVCIVDARCAYMNVCA] it was 168 nM; in that of ACRVYGPYCAYPDTICA (3 Cys thioether-linked to TATA scaffold) [Bicycle Compound Number 37 (TATA scaffold), ACRVYGPYCAYPDTICA], 294 nM.

A further assay deals with T1, Human EphA2 (Ecto), C-terminal polyHis. Nature of the assay: fluorescence polarisation competition; competitor fluorescent Compound 1.
With ACPWGPAWCPVNRPGCA (3 Cys thioether-linked to TBMB scaffold, also called Compound 44) [Bicycle Compound Number 44 (TBMB scaffold)], affinity was put at a Ki of 164 nM.
